Source: ChEMBL document CHEMBL1134384, “Development of new carboxylic acid-based MMP inhibitors derived from functionalized propargylglycines” (J Med Chem, 2001)

Molecular target: Collagenase 3 (Homo sapiens, UniProt P45452)
Assay: Inhibition of human matrix metalloprotease-13 at pH 7.4

IC50: 498 nM
Structure (SMILES): O=C(O)C(CC#Cc1ccccc1)NS(=O)(=O)c1ccc(/N=N/c2ccccc2)cc1 (stereo unspecified)
